In PubChem BioAssay AID1789 (The Scripps Research Institute Molecular Screening Center, 2009) one finds inhibition data, which are given here for one compound.

This is a selection; strong and weak results do not stand in their true shares. The source made the active and inactive calls.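 The calls were made as follows: active = inhibition above the screen-wide mean plus 3 SD, computed separately per campaign (cut at about 16% in these data); inactive = the rest.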

The test system of the assay is Heat shock protein HSP 90 (rabbit reticulocyte lysate; luciferase refolding). Kind of assay: inhibitors of HSP90 chaperone activity – cell lysate, luminescence, primary screen (AID 1789).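 Also: 0% = DMSO wells and 100% = 60 µM geldanamycin wells; inhibitors lower the luminescence because luciferase stays unfolded.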 The conditions noted are these: 3 h, at 5.6 µM, active compounds read high.
For `O=[As](O)(c1ccc(O)cc1)c1ccccc1O`, the inhibition (as a rule, the share of the control response that was lost under treatment) is inactive: 11.4%.
